# In patent US6495314B1, “Process for characterizing proteins” (The Scripps Research Institute, priority 1995, dated 2002):
# Assay: Chemical stability and selective cleavage of thioester/ester backbone bonds (HPLC, mass spectrometry)
# Settings: for stability to base hydrolysis: pH 9.0, 100 mM Tris, 1 M Gn.HCl, 23° C., 30 minutes; for stability to hydroxylamine: 200 mM NH4HCO3, pH 6.0, up to 12 hours
Substance,"cleavage by hydroxylamine (1 M NH2OH, 200 mM NH4HCO3, pH 6.0, 30 minutes)",stability to base hydrolysis,stability to base hydrolysis (listed as thioester peptide),"hydrolysis after addition of 1 M NaOH (pH ~13, 10 minutes)",stability to hydroxylamine (1 M NH2OH),"stability to hydroxylamine (1 M NH2OH, listed as YKLFAla-[coo]-YGGFL.amide)","hydrolysis of ester bond (6M Guanidine HCl, 100 mM Na phosphate pH 10, six hours)",time to cleave ester bond by hydrolysis (pH 10)
LYRA-Gly-SβAla-YGGFL.amide,completely cleaved,No hydrolysis was observed,no hydrolysis was observed,complete hydrolysis,–,–,–,–
YKLFAla-[COO]-LeuYGGFL.amide,–,–,–,–,completely stable,stable,Complete hydrolysis was observed,six
